Reference: PubChem BioAssay AID743279 (National Center for Advancing Translational Sciences (NCATS), 2014)
The list shows a part of the results, in another mix than the full data. Results filed as inconclusive are left out. The source made the active and inactive calls. Cut-off read from the data, not from the text of the source: active = activity change below about -50%; inconclusive = mostly about -30% to -49%; inactive = weaker than that.

test: qHTS for Inhibitors of Inflammasome Signaling: IL-1-beta AlphaLISA Primary Screen; details: THP-1 LPS/ATP IL-1B secretion, 16 h, at 57.5 µM, stronger effect = lower value
Excerpt: Inflammasomes are a set of intracellular multi-protein complexes that enable autocatalytic activation of inflammatory caspases and drive the innate immune response to counter harmful agents. […] A qHTS assay, based on AlphaLISA technology, was developed to screen the Molecular Libraries Small Molecule Repository (MLSMR) to look for novel inflammasome inhibitors. The assay detects IL-1B using AlphaLISA anti-IL-1B acceptor and donor beads. A decreased emission signal, indicating reduced IL-1B secretion, is the desired outcome for this assay. NIH Chemical Genomics Center [NCGC] NIH Molecular Libraries Probe Centers Network [MLPCN] MLPCN Grant: MH095513 Assay Provider: Shyam Biswal Ph.D., Johns Hopkins University Immunity. 2012 Jul 27;37(1):85-95. PMID: 22819042 [2] Curr Pharm Des. 2012;18(16):2320-8. PMID: 22390695
Three microliters containing 3000 THP-1 cells were dispensed into the wells of solid, white, tissue culture treated Greiner 1,536-well plates. Library compounds and positive control, Glyburide, were pin-transferred (23 nL) by a Kalypsys pin-tool equipped with a 1,536-pin array, resulting in final compound concentration ranges of 2.5 nM to 57.5 uM. […] The AlphaLISA signal was read by a PerkinElmer EnVision plate reader with an ultrasensitive luminescence detector and 1536 Plate HTS AlphaScreen aperture (excitation of 680nm and emission of 615nm).
% is set by controls: 0 for no effect and ±100 for the full control effect.

**Q.** For `O=P1(Nc2ccc(Br)cn2)COc2ccccc2OC1`, which activity change is on record?
**A.** The activity change was inactive: 10.1%.

**Q.** For `COc1ccccc1OP(C)(=O)Nc1ccccc1Br` (configuration not stated), which activity change is on record?
**A.** The activity change was inactive: 16.1%.
